Assay results: ChEMBL document CHEMBL1143388 (Bioorg Med Chem, 2009)

Chains of the proteins cited; added tags and fusions are not shown.
UniProt P33535, whole entry, looked up: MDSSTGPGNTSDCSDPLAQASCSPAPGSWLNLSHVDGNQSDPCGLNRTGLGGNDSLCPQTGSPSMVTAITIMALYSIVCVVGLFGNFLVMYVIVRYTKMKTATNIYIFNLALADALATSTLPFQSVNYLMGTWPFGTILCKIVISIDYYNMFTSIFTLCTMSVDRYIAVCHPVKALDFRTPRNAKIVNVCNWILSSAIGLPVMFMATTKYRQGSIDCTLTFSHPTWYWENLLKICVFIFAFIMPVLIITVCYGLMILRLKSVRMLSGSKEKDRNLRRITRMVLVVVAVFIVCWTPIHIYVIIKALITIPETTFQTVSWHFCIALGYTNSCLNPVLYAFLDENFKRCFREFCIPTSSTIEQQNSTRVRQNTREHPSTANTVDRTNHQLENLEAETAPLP
UniProt P32300, whole entry, looked up: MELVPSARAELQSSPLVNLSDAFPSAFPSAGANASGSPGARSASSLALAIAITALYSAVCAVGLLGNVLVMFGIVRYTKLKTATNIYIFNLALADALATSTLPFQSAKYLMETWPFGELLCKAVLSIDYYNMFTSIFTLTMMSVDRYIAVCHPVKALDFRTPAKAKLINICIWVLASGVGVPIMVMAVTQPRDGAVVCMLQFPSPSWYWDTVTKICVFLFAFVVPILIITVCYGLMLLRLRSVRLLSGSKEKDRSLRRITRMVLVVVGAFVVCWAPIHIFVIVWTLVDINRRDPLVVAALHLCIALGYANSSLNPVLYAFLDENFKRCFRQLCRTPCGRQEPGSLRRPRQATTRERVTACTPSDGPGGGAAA

Tests used:
Mu-type opioid receptor = Mu-type opioid receptor (Rattus norvegicus, UniProt P33535); test: Binding affinity to rat MOPR expressed in CHO cells; format: cell-based
Summary of the method: (§1)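 Competitive displacement of [3H]diprenorphine from membranes of CHO cells stably transfected with rat MOPR or mouse DOPR. Buffer: 50 mM Tris-HCl, pH 7.4, with 1 mM EGTA. Ki values were derived from inhibition curves. Each value is the mean of at least three independent experiments run in duplicate.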

[1] = molecular target: Delta-type opioid receptor (Mus musculus, UniProt P32300); test: Binding affinity to mouse DOPR expressed in CHO cells; format: cell-based; summary of the method: as §1

`COC(=O)[C@@H]1C[C@H](OC(C)=O)C(=O)[C@H]2[C@@]1(C)CC[C@H]1C(=O)O[C@@H](c3ccoc3)C[C@]21C` gave a Ki (Mu-type opioid receptor) greater than 1000 nM and a Ki [1] greater than 1000 nM.
